Patent US8030354B2, “Substituted biphenyl GPR40 modulators” (Amgen Inc., priority 2007, dated 2011)

Sequences of proteins named here, by UniProt entry; tags and fusion partners are left off.
UniProt O14842, whole entry: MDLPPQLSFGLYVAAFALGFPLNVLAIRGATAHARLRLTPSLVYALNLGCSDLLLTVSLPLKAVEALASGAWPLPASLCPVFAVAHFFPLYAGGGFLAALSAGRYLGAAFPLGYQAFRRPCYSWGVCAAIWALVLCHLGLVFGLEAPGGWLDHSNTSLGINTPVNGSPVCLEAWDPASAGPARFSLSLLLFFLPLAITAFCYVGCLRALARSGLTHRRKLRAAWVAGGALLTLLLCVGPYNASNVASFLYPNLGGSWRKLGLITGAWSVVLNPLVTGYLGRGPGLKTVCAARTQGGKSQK

Biological target: GPR40 (Homo sapiens, UniProt O14842)
Assay: Cell-based aequorin assay (CHO cells stably expressing GPR40 and aequorin)
Details: read-out: Aequorin EC50; activation of human GPR40, CHO cells, 0.01% HSA

EC50: 100 to 1000 nM
SMILES: COc1ccc(F)c(-c2ccc(COc3cccc(C(CC(=O)O)C4CC4)c3)cc2C2CCCC2C)c1 (single isomer, unassigned)
